# Laboratory results as given in PubChem BioAssay AID2776 (Johns Hopkins Ion Channel Center, 2010).
# Amino acid sequences for entries named in this document (tags omitted).
# UniProt Q9QUQ5, whole entry: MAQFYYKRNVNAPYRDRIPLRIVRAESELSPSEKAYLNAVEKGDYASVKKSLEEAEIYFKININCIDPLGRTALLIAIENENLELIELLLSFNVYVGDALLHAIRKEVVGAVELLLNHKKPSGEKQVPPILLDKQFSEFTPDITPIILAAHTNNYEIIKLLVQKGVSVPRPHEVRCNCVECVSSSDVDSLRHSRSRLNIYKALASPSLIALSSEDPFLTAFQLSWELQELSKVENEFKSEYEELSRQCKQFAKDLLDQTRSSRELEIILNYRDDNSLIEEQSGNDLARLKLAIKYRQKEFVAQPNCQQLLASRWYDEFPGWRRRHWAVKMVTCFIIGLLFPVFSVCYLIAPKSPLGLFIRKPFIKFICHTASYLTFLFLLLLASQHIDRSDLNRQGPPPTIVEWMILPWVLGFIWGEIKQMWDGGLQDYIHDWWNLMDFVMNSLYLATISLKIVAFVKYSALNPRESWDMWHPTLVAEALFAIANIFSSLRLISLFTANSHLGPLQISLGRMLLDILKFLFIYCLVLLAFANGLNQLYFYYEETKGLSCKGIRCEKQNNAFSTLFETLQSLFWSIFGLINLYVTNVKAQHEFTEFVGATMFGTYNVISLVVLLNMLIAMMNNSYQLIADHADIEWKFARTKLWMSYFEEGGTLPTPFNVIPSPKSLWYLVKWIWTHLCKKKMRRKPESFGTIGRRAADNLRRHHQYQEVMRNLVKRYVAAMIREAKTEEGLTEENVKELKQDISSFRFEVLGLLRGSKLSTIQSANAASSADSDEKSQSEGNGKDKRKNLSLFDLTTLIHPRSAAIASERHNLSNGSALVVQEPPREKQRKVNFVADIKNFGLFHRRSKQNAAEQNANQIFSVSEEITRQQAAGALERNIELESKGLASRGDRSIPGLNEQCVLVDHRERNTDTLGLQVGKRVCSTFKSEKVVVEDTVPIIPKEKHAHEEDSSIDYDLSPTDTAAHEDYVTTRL
# The entries are a selection whose mix differs from that of the whole data set. Some tests of the compounds listed are not included; inactive here does not mean inactive elsewhere. Calls of active or inactive are those of the source.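 Rule for the calls: active = compounds whose fluorescence signal differed from control wells by over 3 SD, either direction, in both duplicate plates; inactive = the rest.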
# Target: Short transient receptor potential channel 4 (Mus musculus) (UniProt Q9QUQ5)
# Assay: mouse TRPC4 membrane potential modulation by TRPC6 hits, confirmation, selectivity assay for TRPC6 inhibitor project, cell-based, second specificity screen, HEK293 TRPC4/mu-opioid (AID 2776)
# Conditions: HEK293 TRPC4/MOR, membrane potential dye fluorescence; at 10 µM; channel activated by saturating DAMGO dose
structure (smiles),measurement,value
O=C(OC1CN2CCC1CC2)C(CO)(c1ccccc1)c1ccccc1 (stereo unspecified),outcome,inactive
